Results: patent publication US11877996B1 (priority 2023, dated 2024)

What was measured:
[1] = test system: macrophage-like cells differentiated from THP-1; experiment: MTT cytotoxicity assay, macrophage differentiated from THP-1; conditions: read-out: LC50, 72 h
HepG2 cells = experiment: MTT cytotoxicity assay, HepG2; conditions: read-out: LC50, HepG2, 72 h
HEK293 cells = experiment: MTT cytotoxicity assay, HEK293; conditions: read-out: LC50, HEK293, 72 h
Caco-2 cells = experiment: MTT cytotoxicity assay, Caco-2; conditions: read-out: LC50, Caco-2, 72 h
THP-1 cells = experiment: MTT cytotoxicity assay, THP-1; conditions: read-out: LC50, THP-1, 72 h

Sodium (meta)arsenite
CC50 [1]: 100 µM
CC50 (HepG2 cells): < 25 µM
CC50 (HEK293 cells): < 25 µM
CC50 (Caco-2 cells): < 25 µM
CC50 (THP-1 cells): < 25 µM
